# scFv variants of Ab-14 (light chain) against a SARS-CoV-2 spike peptide

The measurements come from Li et al. 2023 (doi:10.1038/s41467-023-39022-2) through the FLAb antibody collection.

All variants were tested on one target, the spike HR2 peptide PDVDLGDISGINAS (SARS-CoV-2).

The variants keep the heavy chain, the linker and the frameworks of Ab-14 (scFv order VH, a 15-residue (Gly4Ser)3 linker, VL).
VH: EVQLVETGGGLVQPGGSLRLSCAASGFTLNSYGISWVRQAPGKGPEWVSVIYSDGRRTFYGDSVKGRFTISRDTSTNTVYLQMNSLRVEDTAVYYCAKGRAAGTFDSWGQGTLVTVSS
VL: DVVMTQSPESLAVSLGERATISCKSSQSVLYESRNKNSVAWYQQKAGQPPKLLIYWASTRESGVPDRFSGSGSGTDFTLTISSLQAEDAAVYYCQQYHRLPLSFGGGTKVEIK

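The parent was found by panning a naive human phage display library on the peptide. Designed CDR sequences, proposed from the first random library and measured here. Group labels follow the data file (Ctrl: baseline library sampled from a position-specific scoring matrix, with some repeated check sequences; En: ensemble of fine-tuned language models; GP: Gaussian process model; HC: hill climbing; Gen: genetic algorithm; Gibbs: Gibbs sampling; a sequence that several methods proposed may carry one label only). Affinity was read by AlphaSeq, a pooled yeast mating assay with surface-displayed partners. Binding brings cells together so that they mate, and sequencing counts the barcode pairs among the diploids. Each replicate has its own calibration line, from reference interactions of the BCL2 family. There are six technical replicates.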

Variants are written as CDR1, CDR2 and CDR3 of the light chain (limits as in the source). Parent: KSSQSVLYESRNKNSVA, WASTRES, QQYHRLPLS.
Affinities are written as log10 Kd with Kd in nM; a lower number is a better binder.
Where no diploid with the target was found in that replicate, the entry reads "n.d.": below detection, most likely a poor binder, though not proof of it.

| # | CDR-L1 | CDR-L2 | CDR-L3 | group | log10 Kd (nM) by replicate | empty controls |
|---|---|---|---|---|---|---|
| 1 | KWSQSVDYESRNKMSVA | NGSTRES | QQYHRLPLS | GP_Gibbs | 0.07 0.09 -0.05 -0.14 0.01 0.10 | 3 of 18 (2.71) |
| 2 | HQSPSVLYESRNKNSVA | NGSTREE | QQYHRLPLS | GP_HC | 0.21 -0.11 -0.06 -0.29 -0.20 0.04 | 2 of 18 (2.94) |
| 3 | KISQMYRYLQQNESSIA | EANTREQ | QSYHRLPLS | En_HC | n.d. n.d. n.d. n.d. n.d. n.d. | 0 of 18 |
| 4 | HLGLATMVESSVRNSVA | NNSTREE | QQYDRLPLS | En_Gen | n.d. n.d. n.d. 1.33 n.d. 2.01 | 1 of 18 (2.73) |
| 5 | TISQSTQQESHNKNSVA | DLSVRGS | QQYHRLPLS | En_HC | 0.19 0.18 -0.24 0.12 0.17 0.23 | 1 of 18 (2.66) |
| 6 | KVSWSWLYESRNKNSVA | NASQRES | QQYHRLPLS | GP_Gen | 0.18 0.11 0.29 -0.40 0.24 0.24 | 0 of 18 |
| 7 | KQSQSYGGESRNKNSVA | HASKRES | QQYHRLPLS | GP_Gibbs | 1.42 1.48 2.48 1.88 1.51 1.62 | 2 of 18 (2.81) |
| 8 | KIGATLNTLYEKTNNVA | DLVEREN | QQYHRLPLS | En_Gen | 0.96 0.64 -0.10 0.85 0.48 0.26 | 0 of 18 |
| 9 | KLQQSTLYESRNKNSVA | LASTRES | QQYHRLPLS | GP_HC | n.d. 2.00 2.99 2.04 1.76 3.29 | 0 of 18 |
| 10 | KVQYQLAPSEAHTNPVA | DASVVCA | QQYDRLPLG | En_Gibbs | 2.08 1.70 n.d. 1.97 1.79 2.36 | 1 of 18 (1.93) |
| 11 | HLSDSVLNESRNKNSVA | NASTRES | QQYHRLPLN | GP_HC | 0.11 0.32 0.06 0.36 0.29 0.46 | 0 of 18 |
| 12 | MISQLMNLGQFAINSVA | QASIRNI | QQYDRLPLA | En_Gen | 1.11 1.38 1.43 1.46 1.26 4.48 | 1 of 18 (1.95) |
| 13 | IVSQLMMWGMHAKNSIA | EAQTRLN | QQYDRLPLI | En_Gen | n.d. n.d. n.d. n.d. n.d. n.d. | 0 of 18 |
| 14 | HSSPSVYYESRNKNSVA | NASLRES | QQYHRLPLS | GP_HC | 0.62 0.44 0.22 0.11 0.42 0.34 | 4 of 18 (2.83) |
| 15 | KSSQSVPYESRNKNSVA | NASQRES | QQYHRLPLS | GP_Gen | 0.47 0.57 0.66 0.70 0.92 0.68 | 1 of 18 (4.23) |
| 16 | KLSMITNHMQQSKNNVA | EMVTREN | QQYNRLPLS | En_Gen | 0.72 0.65 0.56 0.30 0.89 0.88 | 0 of 18 |
| 17 | MMSQVTGMGQHHRNNVA | QTSTREP | QQYDRLPLI | En_Gen | 1.10 1.07 1.09 0.93 1.16 1.23 | 3 of 18 (2.99) |
| 18 | KSSQSVRGESREKNSVA | WASTRES | NQYHRLPLS | Ctrl | n.d. n.d. n.d. n.d. n.d. n.d. | 1 of 18 (1.26) |
| 19 | KLQQSTLYESRNKNSVA | NASQRLS | QQYHRLPLS | GP_Gen | 0.02 -0.15 -0.20 -0.22 -0.21 -0.09 | 2 of 18 (3.26) |
| 20 | MYSQSYLGEQRNKNSVA | NASTREE | QQYHRLPLS | GP_Gibbs | 0.40 0.63 0.32 0.57 0.80 0.80 | 0 of 18 |
| 21 | KVSQMQPYESRNKNNVA | NASTRMS | QQYHRLPLS | GP_Gibbs | 0.01 -0.18 -0.27 -0.35 -0.12 0.00 | 6 of 18 (3.15) |
| 22 | KSSQGYLYESRNKNSVA | GASTRES | QQYHRLPLS | GP_HC | -0.09 0.13 0.27 0.34 0.07 0.09 | 1 of 18 (2.48) |

Second part, the sequence after the result:

| # | log10 Kd (nM) by replicate | empty controls | CDR-L1 | CDR-L2 | CDR-L3 | group |
|---|---|---|---|---|---|---|
| 23 | 0.51 0.34 0.13 0.34 0.50 0.47 | 1 of 18 (3.48) | KLSTSVLYEDRMCNAVA | AASTREE | QQYHRLPLS | GP_Gibbs |
| 24 | 1.14 1.69 1.47 1.23 1.06 1.16 | 1 of 18 (2.24) | KVPQSQLYESRNKNSVA | QASTRES | QQYHRLPLS | GP_Gen |
| 25 | 0.23 0.05 -0.13 -0.10 -0.10 0.23 | 4 of 18 (2.74) | KLGATLNTEMTKKNNVA | DLVTREN | QQYHRLPLS | En_Gen |
| 26 | -0.10 -0.16 0.07 -0.12 -0.31 0.13 | 0 of 18 | MISNVMNTLTRNGNNVA | DLAERED | QQYFRLPLS | En_Gen |
| 27 | n.d. 2.60 n.d. 4.22 n.d. 2.30 | 1 of 18 (2.54) | KSSQSVLSESRNKNSVA | WASTRYS | QQYHRLPLS | Ctrl |
| 28 | 1.17 0.90 1.27 0.79 0.88 1.17 | 1 of 18 (2.94) | MISQVYNMGSFAINSVA | QASQRNA | QQYDRLPLM | En_Gen |
| 29 | 0.21 0.13 0.18 0.33 0.69 0.61 | 2 of 18 (2.44) | KVSQSHLYESRNKNAVA | NASQRES | QQYHRLPLS | GP_Gen |
| 30 | n.d. n.d. n.d. n.d. n.d. n.d. | 0 of 18 | KSSESVLVESRNKNSVA | WASTRES | QQLHRIPES | Ctrl |
| 31 | n.d. 2.05 n.d. n.d. n.d. n.d. | 0 of 18 | KSSHSVLYESRNKKSVA | HASTRES | YQPHRLPLS | Ctrl |
| 32 | 1.24 0.92 1.34 0.99 0.91 1.00 | 0 of 18 | KLQWQQYGENQQEAAIA | NETTVAQ | QQYSKLPLT | En_Gibbs |
| 33 | 0.84 0.52 0.01 0.83 -0.08 0.47 | 0 of 18 | HIQSESEHPYKDKNSMA | DAECKAA | QQYFRLPLM | En_Gibbs |
| 34 | 0.25 -0.19 -0.07 -0.49 0.15 0.17 | 0 of 18 | KLSQSDLMESRNKNSVA | NASTRES | QQYHRLPLS | GP_Gen |
| 35 | n.d. n.d. n.d. n.d. n.d. n.d. | 2 of 18 (2.48) | KSSQSVLYESRNKNSVA | WGSTRES | QQYHRTPLS | Ctrl |
| 36 | 0.75 2.05 1.36 1.94 0.84 2.02 | 0 of 18 | MLKMENEEFNQDKHSVA | EAVEKES | QQYHRLPII | En_Gibbs |
| 37 | -0.03 0.11 -0.06 -0.33 0.10 0.31 | 0 of 18 | KLPQSVLYESRNKNSVA | SASTRES | QQYHRLPLS | GP_Gen |
| 38 | 1.59 1.53 1.91 4.94 1.99 2.20 | 2 of 18 (2.78) | KSSQSVLYESDNKNSVA | NAVFRES | QQYHRHPLS | Ctrl |
| 39 | 0.38 -0.01 0.08 0.02 0.42 0.67 | 0 of 18 | KLSFGNLYESRNQNSVA | KASTRLQ | QQYHRLPLS | GP_Gibbs |
| 40 | 0.04 -0.04 -0.21 -0.29 -0.18 0.02 | 2 of 18 (2.33) | KLSQSVLYESRNKNSVA | NASTREQ | QQYHRLPLS | GP_Gen |
| 41 | 0.90 0.43 0.54 0.50 0.71 0.86 | 3 of 18 (2.97) | SLKTMPGEGPQEYSSIA | HAELRTP | QQYYRLPLM | En_Gibbs |
| 42 | 0.20 0.35 0.09 0.00 0.16 0.19 | 2 of 18 (2.49) | KSQQSWLYESRNKNSVA | GASTREN | QQYHRLPLS | GP_HC |
| 43 | 0.49 0.44 0.42 0.20 0.30 0.60 | 1 of 18 (2.96) | KIGMTLNTLMHQKNNVA | DLVMREN | QQYHRLPLS | En_Gen |
| 44 | -0.20 -0.50 -0.28 -0.38 -0.30 -0.09 | 0 of 18 | KMSQKVKFESRNKNSVA | DASTRES | QQYHRLPLS | GP_HC |

A selection of 4 entries from above:

CDR-L1	CDR-L2	CDR-L3	group	log10 Kd (nM) by replicate	empty controls
KIGATLNTLYEKTNNVA	DLVEREN	QQYHRLPLS	En_Gen	0.96 0.64 -0.10 0.85 0.48 0.26	0 of 18
KSSQSVPYESRNKNSVA	NASQRES	QQYHRLPLS	GP_Gen	0.47 0.57 0.66 0.70 0.92 0.68	1 of 18 (4.23)
KSSQSVLSESRNKNSVA	WASTRYS	QQYHRLPLS	Ctrl	n.d. 2.60 n.d. 4.22 n.d. 2.30	1 of 18 (2.54)
MISNVMNTLTRNGNNVA	DLAERED	QQYFRLPLS	En_Gen	-0.10 -0.16 0.07 -0.12 -0.31 0.13	0 of 18

Of ten entries with the parent sequence, four were seen in most replicates (averages 0.34 to 2.37), three in one and three in none, so single entries are noisy.
The range of this assay differs from that of the first round, and the authors advise against merging the two.
Empty control strains, which show no peptide, gave a signal in 4% of pairings with all light chain designs; the median was 2.64 and 95% of these signals were weaker than 1.59. No background was subtracted. For each scFv, signals with the empty controls are counted beside the result, with their mean in brackets.
In the paper, a design with two or fewer of six values counts as a poor binder.